1 compound from patent US9603836B2, “Pyrrolidine-2, 5-dione derivatives, pharmaceutical compositions and methods for use as IDO1 inhibitors” (ITEOS THERAPEUTICS, priority 2014, dated 2017) can be followed below.

Broadly, the EC50 is the concentration giving half of the maximal effect. High values mean a less potent agent, low ones a more potent agent.

In this test the test system is T-cell proliferation. Description: IDO1-dependent T cell proliferation: SKOV-3 PBMC co-culture. Type of test: cell-based. The note with it: Homo sapiens; restoration of T cell proliferation, Thymidine incorporation; average of three independent experiments. The method, then:
The compounds of the present invention restore T-cell proliferation in a SKOV-3 PBMC co-culture assay.
The assay was performed in 96-well flat bottom plates seeded with the human ovarian adenocarcinoma SKOV-3 cell line [SKOV-3; SKOV3] (ATCC® HTB-77™)] and co-cultured with human peripheral blood mononuclear cells (PBMC) stimulated with CD3/CD28 beads and rhIL-2.
To adhere, irradiated SKOV-3 cells (concentration of 150×10^3 cells/well) were incubated overnight at 37° C. at 5% CO2 in Iscove's Modified Dulbecco's Medium (IMDM) (Lonza) supplemented with 50% FBS, 2% penicillin/streptomycin and 2 mM Ultraglutamin, in a final volume of 150 μL. Isolated PBMCs (stimulated with CD3/CD28 beads and rhIL-2 (30 U/mL)) were added in a ratio of 1:1. After 24 h of co-culture ^3H-Thymidine (1 μCurie/10 uL) was added to assess proliferation (TopCount counter, Perkin Elmer) after overnight incubation in the presence of 50% serum.
To determine the effect of IDO1 inhibition on restoration of T cell proliferation, the compounds of the present invention were co-incubated at different concentrations.
In general terms: Uptake of a labelled nucleoside into DNA is a usual measure of proliferation.

The compound `O=C1C[C@H](c2c[nH]c3ccc(F)cc23)C(=O)N1` [Compound 2, (−)-(R)-3-(5-fluoro-1H-indol-3-yl)pyrrolidine-2,5-dione] yielded an EC50 of 74 nM.
